Test: Pharmacokinetic properties of CGRP and analogues, plasma level by CGRP ELISA
Assay type: in vivo, Sprague Dawley rats
Conditions: SD rats, single s.c. injection; Analog alpha1 151 nmol/kg, Analogue beta1 231 nmol/kg
Procedure: Male Sprague Dawley rats (n=24) weighing approximately 250 g were used for the combined pharmacokinetic (T½, Cmaxetc.) and pharmacodynamic (GLP-1 release) study. The rats were divided in 4 groups with n=6 rats per group. The rats were treated with a single subcutaneous injection (1 ml/kg) of vehicle, alpha-CGRP (138 nmol/kg), Analogue beta1 (231 nmol/kg) or Analog alpha1 (151 nmol/kg). Blood (200 μl) was sampled from vena sublingualis from unanaesthetised rats pre-dose and at 0.5, 1, 3, 7 and 24 hours post dosing. Blood was collected in tubes containing EDTA. The samples were kept on ice and centrifuged. The plasma was kept at −20° C. until analysis for CGRP analog and total GLP-1.
A commercial available kit (Human CGRP ELISA, cat. #A05481, SPIbio) was used for monitoring the plasma levels of CGRP-analogues. Briefly, the assay was a two-sited enzyme-linked immuno sorbent assay (ELISA) using two antibodies against human CGRP. A monoclonal antibody was immobilized to the surface of micro plate wells. Five micro liter of plasma samples or calibrators were applied to the appropriate wells and incubated for 2 hours together with 100 μL buffer and 100 μL AChE-conjugated Fab′ fragment. […] The color intensity was determined by spectrophotometer at 405 nm. […] The lower limit of quantification of the modified CGRP assay was approximately 750 pM and the imprecision was (% CV)<10%.

“N-alpha-[2-(2-{2-[(S)-4-Carboxy-4-(17-carboxyheptadecanoylamino)butyrylamino]ethoxy}ethoxy)acetyl][Ser1]beta-human CGRP peptide [Analogue beta 1]” showed a Cmax of 210 nM and a T½ of over 7 h.

From patent US8835379B2, “Derivatives of CGRP” (Novo Nordisk A/S, priority 2009, dated 2014)
